Target: muscarinic m1 receptors (Rattus norvegicus, UniProt P08482)
Assay: biochemical
Assay type: binding

Protein sequences, listed by entry. Tags and fused reporters are not part of them. Lines headed by an entry give the natural chain unless they say otherwise; changes in a name come on top.
UniProt P08482: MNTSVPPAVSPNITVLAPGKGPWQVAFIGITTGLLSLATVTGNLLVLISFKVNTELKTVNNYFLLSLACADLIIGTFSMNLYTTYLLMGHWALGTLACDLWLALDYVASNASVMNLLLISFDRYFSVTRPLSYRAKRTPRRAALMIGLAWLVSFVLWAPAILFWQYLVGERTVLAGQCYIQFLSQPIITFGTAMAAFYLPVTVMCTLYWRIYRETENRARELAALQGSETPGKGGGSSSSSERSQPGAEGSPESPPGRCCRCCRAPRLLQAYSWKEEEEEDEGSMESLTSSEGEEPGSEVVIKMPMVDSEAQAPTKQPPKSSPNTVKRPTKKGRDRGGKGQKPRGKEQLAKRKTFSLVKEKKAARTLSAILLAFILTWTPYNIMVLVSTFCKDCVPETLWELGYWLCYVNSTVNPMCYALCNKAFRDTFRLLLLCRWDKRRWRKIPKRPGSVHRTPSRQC

CN1[C@@H]2CC[C@H]1C[C@@H](OC(c1ccc(F)cc1)c1ccc(F)cc1)C2 [Compound 7c, 4',4"-difluoro-3α-(diphenylmethoxy)tropane]
Ki: 6.1 nM

Source: patent US5792775A (priority 1996, dated 1998)
